# From PubChem BioAssay AID1422 (Emory University Molecular Libraries Screening Center, 2008)
# Chains of the proteins cited; added tags and fusions are not shown.
# UniProt P43116, whole entry: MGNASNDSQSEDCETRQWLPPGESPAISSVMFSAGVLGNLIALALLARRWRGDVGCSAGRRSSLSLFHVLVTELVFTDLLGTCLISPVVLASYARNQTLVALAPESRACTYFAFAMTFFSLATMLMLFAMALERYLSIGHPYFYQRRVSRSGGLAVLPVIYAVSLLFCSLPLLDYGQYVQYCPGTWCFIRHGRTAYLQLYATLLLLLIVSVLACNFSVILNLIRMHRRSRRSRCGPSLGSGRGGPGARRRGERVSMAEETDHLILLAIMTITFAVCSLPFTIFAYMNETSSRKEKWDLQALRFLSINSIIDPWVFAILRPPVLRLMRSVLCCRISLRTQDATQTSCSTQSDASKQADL
# This is a selection; strong and weak results do not stand in their true shares. Activity calls are given as the source filed them.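 How the source made its calls: active means percent inhibition above 40 after rounding to a whole number; inactive means the rest.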
# Biological target: Prostaglandin E2 receptor EP2 subtype (Homo sapiens) (UniProt P43116)
# Assay: blockers of PGE2-driven EP2 cAMP signalling – TR-FRET cAMP, C6 glioma cells, primary screen (AID 1422);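 further: rat C6 glioma host cells with rolipram phosphodiesterase inhibitor present; the protocol text gives 20 µM as final concentration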
# Settings: C6 glioma cells expressing human EP2, cAMP TR-FRET; at 25 µM; stronger effect = higher value; cells stimulated with saturating PGE2
row,SMILES,inhibition
1,CP(=O)(Nc1ccc(SC(F)(F)F)cc1)Oc1ccc(Cl)cc1 (stereo not given),inactive: 11.8%
2,Cc1cccc(C)c1OP(C)(=O)Nc1ccc(SC(F)(F)F)cc1 (stereo not given),inactive: 4.98%
3,CP(=O)(Oc1ccccc1)OC(c1ccccc1)C(F)(F)F (stereo not given),inactive: 1.07%
4,CCc1ccc(OP(C)(=O)N2CCN(c3ccc([N+](=O)[O-])cc3)CC2)cc1 (stereo not given),inactive: 11.7%
5,CP(=O)(NC(=O)Nc1ccccc1)Oc1ccccc1 (stereo not given),inactive: 7.57%
6,Cc1cc(C)cc(OP(C)(=O)Nc2ccc(SC(F)(F)F)cc2)c1 (stereo not given),inactive: 7.04%
7,CCOC(=O)c1ccc(NP(C)(=O)Oc2ccc(OC)cc2)cc1 (stereo not given),inactive: 3.81%
8,CCOP(C)(=S)SCC(=O)NC(C)C(=O)O (stereo not given),inactive: 7.3%
9,CP(=O)(Nc1ccccn1)Oc1ccc(Cl)cc1 (stereo not given),inactive: 13%
10,O=[N+]([O-])c1cc([N+](=O)[O-])c(-n2nnc3ccccc32)c([N+](=O)[O-])c1,inactive: 15%
11,Cc1nc2ccc3ccccc3c2s1.O=[N+]([O-])c1cc([N+](=O)[O-])c(O)c([N+](=O)[O-])c1,inactive: 15.6%
12,O=[N+]([O-])c1cc([N+](=O)[O-])c(Nc2nnnn2CCO)c([N+](=O)[O-])c1,inactive: 4.44%
13,CCOC(=O)C(CC)C1=NC(C)(C)Cc2ccccc21.O=[N+]([O-])c1cc([N+](=O)[O-])c(O)c([N+](=O)[O-])c1 (stereo not given),inactive: 8.41%
14,CN1CCCCC1COC(=O)C1(O)c2ccccc2CCc2ccccc21 (stereo not given),inactive: 1.89%
15,COc1ccccc1OP(C)(=O)Nc1c(C)cccc1C (stereo not given),inactive: 9.44%
16,CP(=O)(Nc1ccc(SC(F)(F)F)cc1)Oc1ccccc1 (stereo not given),inactive: 14.1%
17,CCCOc1ccc(NP(C)(=O)Oc2ccc(Cl)cc2)cc1 (stereo not given),inactive: 6.57%
18,O=C(O)c1cccc(Nc2c([N+](=O)[O-])cc([N+](=O)[O-])cc2[N+](=O)[O-])c1,inactive: 1.16%
19,CC1=NCCc2c1[nH]c1ccccc21.O=[N+]([O-])c1cc([N+](=O)[O-])c(O)c([N+](=O)[O-])c1,inactive: 6.64%
20,COc1ccccc1OP(C)(=O)Nc1cccc(Br)c1 (stereo not given),inactive: 4.14%
21,CCOC(=O)c1ccc(NP(C)(=O)Oc2cc(C)cc(C)c2)cc1 (stereo not given),inactive: 8.26%
22,Cc1cc(C)cc(OP(C)(=O)Nc2ccc(C)cc2C)c1 (stereo not given),inactive: 2.67%
23,Cc1ccc(C)c(NP(C)(=O)Oc2ccccc2)c1 (stereo not given),inactive: 8.17%
24,CP(=O)(Nc1cccc(Br)c1)Oc1ccccc1 (stereo not given),inactive: 9.14%
25,Cc1cc(C)cc(OP(C)(=O)Nc2ccccn2)c1 (stereo not given),inactive: 27.3%
